# Values quoted from earlier work as cited in PubChem BioAssay AID1811 (Shanghai Institute of Organic Chemistry, 2009).
# This is one part of the list. Active and inactive are the calls of the source. Where no limit is named, active and inactive come without a cut-off here.
# Tested on: purine nucleoside phosphorylase
# Assay: PubChem AID 1811
# Conditions: PDB complex binding affinities from literature
smiles,measurement,value
Nc1nc2c(ncn2[C@@H]2O[C@H](CO)[C@@H](O)[C@H]2O)c(=O)[nH]1,outcome,active
